# Only a part is listed here, and it is no random draw. The source made the active and inactive calls.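 Rule for the calls: active = percent inhibition above a per-plate cutoff, the plate mean of test compounds plus 3 SD (cut at about 30% in these data); inactive = the rest.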
# Amino acid sequences for entries named in this document (tags omitted).
# UniProt Q17339, whole entry: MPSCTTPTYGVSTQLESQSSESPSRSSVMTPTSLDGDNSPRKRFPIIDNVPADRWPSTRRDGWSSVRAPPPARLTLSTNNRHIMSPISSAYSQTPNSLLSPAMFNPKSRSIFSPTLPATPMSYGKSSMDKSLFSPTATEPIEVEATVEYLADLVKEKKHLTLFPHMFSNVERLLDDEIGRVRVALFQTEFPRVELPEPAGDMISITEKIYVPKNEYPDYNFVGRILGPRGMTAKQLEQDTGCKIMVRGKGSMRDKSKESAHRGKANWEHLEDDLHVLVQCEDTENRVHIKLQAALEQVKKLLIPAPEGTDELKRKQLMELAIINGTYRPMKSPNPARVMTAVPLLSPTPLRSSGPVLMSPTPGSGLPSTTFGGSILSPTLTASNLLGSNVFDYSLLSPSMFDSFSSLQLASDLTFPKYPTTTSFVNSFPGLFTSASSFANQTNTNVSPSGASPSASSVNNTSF
# Target: Female germline-specific tumor suppressor gld-1 (Caenorhabditis elegans) (UniProt Q17339)
# Experiment: small molecules blocking C. elegans GLD-1 RNA recognition – biochemical, fluorescence polarization, primary screen (AID 2280);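 note: 0% = DMSO wells with GLD-1 and probe and 100% = wells lacking GLD-1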
# Conditions: purified GLD-1 + fluorescein TGE RNA, at 5.96 µM, stronger effect = higher value
row,SMILES,inhibition
1,CCC(=O)N(c1ccccc1)C1(COC)CCN(CCn2nnn(CC)c2=O)CC1,inactive: -2.51%
2,CCC(=O)N(c1ccccc1)C1(COC)CCN(CCc2cccs2)CC1,inactive: -3.21%
